The values that follow are results of earlier work, collected in patent publication US10179774B2, “Synthesis of chirally purified substituted benzothiazole diamines” (priority 2007, dated 2019).

In the data set the test system is humans. The note with it: Boehringer Ingelheim product insert; cited from earlier work.

For the molecule `CCCNC1CCc2nc(N)sc2C1` (stereo not shown) [pramipexole], the “maximally tolerated dose for humans” value was 4.5 mg/day.
